The target of one experiment is α-synuclein (Homo sapiens (Human), UniProt P37840). In words: Circular dichroism spectroscopy: inhibition of α-synuclein β-sheet formation. Particulars: 24 h, read-out: Max % Inhibition. Type of experiment: biochemical. The protocol: For this purpose, α-synuclein was obtained from rPeptide as a lyophilized salt in 1 mg aliquots. Buffer components and other solvents were obtained from Sigma as A.C.S. Reagent grade or higher. […] After 24 hours, reactions were diluted 20-fold in PBS and CD spectra for each reaction were acquired on a Jasco J-810 spectropolarimeter using a 0.1 cm path length cell. All spectra were recorded with a step size of 0.1 nm, a bandwidth of 1 nm, and an α-synuclein concentration of 0.05 mg/ml. The spectra were trimmed at the shortest wavelength that still provided a dynode voltage less than 600V. The trimmed spectra were then subjected to a data processing routine beginning with noise reduction by Fourier transform followed by subtraction of a blank spectrum (vehicle only without α-synuclein). These blank corrected spectra were then zeroed at 260 nm and the units converted from millidegrees to specific ellipticity.
These percent β-sheet values were then used to provide the respective relative % inhibition of β-sheet induced by the compounds at given molar ratio of test compound:α-synuclein.
Background: Circular dichroism is widely used to follow secondary structure.

Experiment [1] has as its target T1, α-synuclein fibrils (Homo sapiens (Human), UniProt P37840). In words: Thioflavin T fluorometry: disruption/disaggregation of pre-formed α-synuclein fibrils. Type of experiment: biochemical. Particulars: 48 h, read-out: Max % Decrease. The method, then: The biological activity of the compounds provided herein as disruptors/inhibitors of Parkinson's disease α-synuclein fibrils was assessed by determining the efficacy of the compounds to cause a disassembly/disruption of pre-formed Parkinson's disease α-synuclein fibrils. In one study, Thioflavin T fluorometry was used to determine the effects of the compounds, and […]).
In one study, Thioflavin T fluorometry was used to determine the effects of the compounds on α-synuclein fibrils. In addition to test compounds, this experiment included a positive control compound and a negative control compound for reference.
For each compound, the % inhibition of Thioflavin T fluorescence (i.e. the decrease compared to control reactions containing α-synuclein alone) was plotted against the log of the concentration of the test compound (expressed as mole ratio relative to α-synuclein).

For experiment [2], the target named is T1, α-synuclein fibrils. In words: biochemical. Conditions: 48 h, read-out: Max % Decrease.

We go through one compound from US9085549B2, “Compounds for the treatment of neurodegenerative diseases” (ProteoTech Inc., priority 2011, dated 2015).

Turning to `Oc1ccc(-c2cc(Br)c(-c3ccc(O)c(O)c3)s2)cc1O` [SA-59], the Emax on α-synuclein turned out to be 99%; at α-synuclein fibrils [1], 96%; at α-synuclein fibrils [2] it was 85%.
